Data on 39 compounds can be found in publication PMC3199943, “Screening the MayBridge Rule of 3 Fragment Library for Compounds That Interact with the Trypanosoma brucei myo-Inositol-3-Phosphate Synthase and/or Show Trypanocidal Activity” (Molecular Biology International, 2011).

Each structure is given as a SMILES string.

One test deals with cultured bloodstream T. brucei (strain 427). Briefly: microbe, parasite or virus in culture. Conditions: Trypanosoma brucei, read-out: T. brucei Alamar Blue.
Turning to `COC(=O)c1c[nH]c2ccccc12` [compound 392, methyl 1H‐indole‐3‐carboxylate], the viability at 500 µM is 90.6 ± 14.9%.

With `Cc1onc(-c2ccccc2)c1CO` [compound 534, (5‐methyl‐3‐phenyl‐4‐isoxazolyl)methanol], the viability at 500 µM stood at 59.9 ± 18.3%. Same read-out and setting: as for `CNCc1ccc(N2CCCCC2)cc1` [compound 657, N‐methyl‐N‐(4‐piperidin‐1‐ylbenzyl)amine], the figure is 27.3 ± 8.2%; as for `N#Cc1ccnc(N2CCSCC2)c1` [compound 668, 2‐thiomorpholinoisonicotinonitrile], 106 ± 23.6%; as for `OCc1ccc(Oc2ccccc2)cc1` [compound 622, (4‐phenoxyphenyl)methanol], 84 ± 5.4%. On the same count and under the same terms, to `Cc1nc2ccc(N)cc2s1` [compound 302, 2‐methyl‐1,3‐benzothiazol‐6‐ylamine] belongs 58 ± 4.6%; to `CN1CCN(c2ccccc2N)CC1` [compound 561, 2‐(4‐methylpiperazin‐1‐yl)aniline], 72.8 ± 18.6%. Still for that read-out and setting: as for `O=C(O)c1cc2sccc2s1` [compound 479, thieno[3,2‐b]thiophene‐2‐carboxylic acid], the figure is 91.9 ± 9%; as for `O=C(O)c1ccc(-c2nccs2)cc1` [compound 662, 4‐(1,3‐thiazol‐2‐yl)benzoic acid], 116 ± 24%. `O=C(O)c1ccc2ncsc2c1` [compound 444, 1,3‐benzothiazole‐6‐carboxylic acid]: the viability at 500 µM is 112 ± 19.8%.

Regarding `Nc1cccc(OC(F)(F)F)c1` [compound 419, 3‐(trifluoromethoxy)aniline], the viability at 500 µM was 104 ± 2.1%. The same measure, in the same setting: as for `N#Cc1ccc(N2CCNCC2)cc1` [compound 518, 4‐Piperazin‐1‐yl‐benzonitrile], the figure is 61.8 ± 2.1%.

As to `Nc1cccc(N2CCOCC2)c1` [compound 441, 3‐morpholin‐4‐ylaniline], the viability at 500 µM worked out at 52.6 ± 19.5%. In the case of `CC(C)(C)OC(=O)Nc1ccsc1` [compound 619, tert‐butyl N‐(3‐thienyl)carbamate], the viability at 500 µM was 60.5 ± 3.8%.

For `O=C(O)c1cccc(-c2ccccn2)c1` [compound 611, 3‐pyrid‐2‐ylbenzoic acid], the viability at 500 µM turned out to be 98.5 ± 13.5%. The same measure, in the same setting: as for `O=C(O)Cc1c[nH]c2ccccc12` [compound 391, 2-(1H-indol-3-yl)acetic acid], the figure is 38.8 ± 10.1%. Same read-out and setting: to `NC(=S)COc1cccc(Cl)c1` [compound 633, 2‐(3‐chlorophenoxy)ethanethioamide] belongs 86.5 ± 6.5%; to `Nc1ccccc1N1CCNCC1` [compound 429, 2‐piperazin‐1‐ylaniline], 40.2 ± 13.4%; to `O=C(O)c1ccnc2ccccc12` [compound 368, quinoline‐4‐carboxylic acid], 96.3 ± 9.9%. The same measure, in the same setting: as for `Cc1onc(-c2ccccc2)c1N` [compound 384, 5‐methyl‐3‐phenyl‐4‐isoxazolamine], the figure is 107 ± 7.1%; as for `OCc1ccc(-c2ccccc2)nc1` [compound 492, (6‐phenyl‐3‐pyridinyl)methanol], 59.3 ± 3.2%.

As for `OCc1ccc(-n2cccc2)cc1` [compound 372, [4-(1H-pyrrol-1-yl)phenyl]methanol], the viability at 500 µM was 37 ± 14%. On the same count and under the same terms, as for `NCc1ccc(N2CCCC2)cc1` [compound 414, [4‐(1‐pyrrolidinyl)phenyl]methanamine], the figure is 31.2 ± 6.3%; as for `O=C(O)CCc1c[nH]c2ccccc12` [compound 533, 3‐(1H‐indol‐3‐yl)propanoic acid], 95.2 ± 14.2%. In the case of `CC(=O)c1cc(Cl)sc1Cl` [compound 590, 1‐(2,5‐dichloro‐3‐thienyl)ethan‐1‐one], the viability at 500 µM was determined as 106 ± 10.2%. On the same count and under the same terms, as for `c1ccc(Sc2ccsc2)cc1` [compound 574, 3‐(phenylthio)thiophene], the figure is 112 ± 15.2%; as for `OCc1cccnc1N1CCCCC1` [compound 572, (2‐piperidino‐3‐pyridinyl)methanol], 32.5 ± 9%.

For `O=C(O)c1sccc1Cl` [compound 290, 3‐chlorothiophene‐2‐carboxylic acid], the viability at 500 µM was 93.3 ± 13.4%.

As to `O=C(O)c1cnccc1C(F)(F)F` [compound 553, 4‐(trifluoromethyl)nicotinic acid], the viability at 500 µM turned out to be 103 ± 10.9%. In the case of `O=C(O)c1cccc(-c2ccsc2)c1` [compound 650, 3‐thien‐3‐ylbenzoic acid], the viability at 500 µM came to 30.5 ± 9%. Take `O=C(O)C12CC3CC(CC(O)(C3)C1)C2` [compound 597, 3‐hydroxyadamantane‐1‐carboxylic acid]: the viability at 500 µM was 106 ± 11%.

For `CC(=O)Nc1ccc(Cl)cc1C` [compound 473, 4‐chloro‐2‐methylacetanilide], the viability at 500 µM came to 86 ± 1%.

For `O=C(O)c1ccc(CN2CCCC2)cc1` [compound 665, 4‐(pyrrolidin‐1‐ylmethyl)benzoic acid], the viability at 500 µM is 79.6 ± 19.9%. Same read-out and setting: to `CCCCCSc1nnc[nH]1` [compound 357, 3‐(pentylthio)‐4H‐1,2,4‐triazole] belongs 23.8 ± 4.9%.

In the case of `COC(=O)CSc1ccccc1` [compound 466, methyl 2‐(phenylthio)acetate], the viability at 500 µM came to 93.8 ± 5.2%. On the same count and under the same terms, as for `O=C(O)C1COc2ccccc2C1` (stereo not drawn) [compound 431, 3‐chromanecarboxylic acid], the figure is 95.2 ± 14.3%. Same read-out and setting: as for `O=C(O)CSCc1ccccc1` [compound 465, 2‐(benzylthio)acetic acid], the figure is 111 ± 12.3%.

The same test, now with this note: Trypanosoma brucei, read-out: T. brucei Alamar Blue (% survival).
For `O=C(O)Cc1c[nH]c2ccccc12` [compound 391, 2-(1H-indol-3-yl)acetic acid], the viability at 500 µM stood at 38.8 ± 10.1%. The same measure, in the same setting: as for `OCc1ccc(-n2cccc2)cc1` [compound 372, [4-(1H-pyrrol-1-yl)phenyl]methanol], the figure is 37 ± 14%.

Staying with this test, now noted: Trypanosoma brucei, read-out: T. brucei Alamar Blue, Supplementary Table 1; compound 0.5 mM; percentage of controls in the absence of compound; mean ± SD (n=3) or SE (n=2).
As for `Nc1ncccc1OCc1ccccc1` [compound 624, 3‐(benzyloxy)pyridin‐2‐amine], the viability at 500 µM is 70.4 ± 12.1%. For the compound `CNCc1ccccc1-c1cccs1` [compound 646, N‐methyl‐N‐(2‐thien‐2‐ylbenzyl)amine], the viability at 500 µM came out at 27.9 ± 11%.

Staying with this test, now noted: Trypanosoma brucei, read-out: T. brucei ED50, ED50 ± SD (n = 4).
`OCc1ccc(-n2cccc2)cc1` [compound 372, [4-(1H-pyrrol-1-yl)phenyl]methanol]: the IC50 was 302 ± 15 µM.
